Earlier results in patent US20120309811A1, “P-GLYCOPROTEIN-SPECIFIC NON-COMPETITIVE PEPTIDE AND PEPTIDOMIMETIC MODULATORS” (UNIVERSITE CLAUDE BERNARD - LYON 1, priority 2009, published 2012).

Protein sequences, listed by entry. Tags and fused reporters are not part of them.
UniProt P08183, whole entry: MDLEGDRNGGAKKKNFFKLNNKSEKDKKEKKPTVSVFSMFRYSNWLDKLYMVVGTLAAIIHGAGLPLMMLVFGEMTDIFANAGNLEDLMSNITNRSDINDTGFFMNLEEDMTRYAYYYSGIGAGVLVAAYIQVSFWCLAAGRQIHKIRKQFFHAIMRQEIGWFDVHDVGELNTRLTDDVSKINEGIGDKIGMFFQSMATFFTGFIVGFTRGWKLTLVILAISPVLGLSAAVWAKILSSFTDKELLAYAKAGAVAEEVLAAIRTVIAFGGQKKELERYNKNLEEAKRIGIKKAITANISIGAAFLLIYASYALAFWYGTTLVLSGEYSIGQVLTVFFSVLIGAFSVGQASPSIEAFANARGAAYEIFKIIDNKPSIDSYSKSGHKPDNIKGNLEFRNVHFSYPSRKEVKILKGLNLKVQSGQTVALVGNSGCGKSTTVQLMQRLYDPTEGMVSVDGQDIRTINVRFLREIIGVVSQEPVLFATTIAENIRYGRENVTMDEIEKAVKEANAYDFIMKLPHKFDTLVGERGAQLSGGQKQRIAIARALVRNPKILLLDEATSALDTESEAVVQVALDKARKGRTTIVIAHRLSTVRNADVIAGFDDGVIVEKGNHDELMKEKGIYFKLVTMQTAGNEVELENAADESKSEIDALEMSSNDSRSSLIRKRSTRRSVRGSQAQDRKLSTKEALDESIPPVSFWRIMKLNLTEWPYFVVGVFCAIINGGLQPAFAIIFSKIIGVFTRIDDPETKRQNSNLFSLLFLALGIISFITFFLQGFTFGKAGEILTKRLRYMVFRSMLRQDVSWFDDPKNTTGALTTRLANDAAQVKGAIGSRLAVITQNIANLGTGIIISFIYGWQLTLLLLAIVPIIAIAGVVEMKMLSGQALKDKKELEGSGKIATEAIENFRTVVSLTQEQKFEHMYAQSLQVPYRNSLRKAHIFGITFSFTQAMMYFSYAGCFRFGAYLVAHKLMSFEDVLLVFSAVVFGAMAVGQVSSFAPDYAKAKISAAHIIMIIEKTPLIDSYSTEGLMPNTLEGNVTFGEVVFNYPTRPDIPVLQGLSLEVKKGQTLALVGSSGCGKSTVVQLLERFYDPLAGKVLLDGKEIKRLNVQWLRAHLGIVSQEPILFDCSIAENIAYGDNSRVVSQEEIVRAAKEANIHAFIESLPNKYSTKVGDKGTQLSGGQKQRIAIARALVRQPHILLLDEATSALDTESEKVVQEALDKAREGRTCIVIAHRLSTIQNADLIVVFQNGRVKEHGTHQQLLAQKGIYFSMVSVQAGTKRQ

Molecular target: ABCB1 (Homo sapiens, UniProt P08183)
Design: key: the inhibitor is active (+); it is inactive (−); the effect is unknown (?)
Details: cited from earlier work

O[C@@H](COc1cccc2ncccc12)CN1CCN([C@@H]2c3ccccc3[C@@H]3[C@H](c4ccccc42)C3(F)F)CC1 [Ly335979 (zosuquidar)]
activity of MDR inhibitor on ABCB1: +
